In patent publication US8686126B2, “HBV drug resistance methods” (priority 2002, dated 2014):

Tested on: HBV
Experiment: HBV DNA levels in serum of HBV-infected patient No. 7 (liquid-hybridization assay, Digene)
Format: in vivo, human

## IFN: interferon-alpha, licensed treatment for chronic hepatitis B
At the end of IFN treatment (5 MU/TIW, 8 months), one patient
  HBV DNA level: 74 pg/mL
During treatment, one patient (IFN 5 MU/TIW; lamivudine 150 mg/day; lamivudine plus IFN 9 MU/TIW)
  virological response / HBV replication: did not show an ALT (alanine amino-transferase) decrease or virological response
